# Laboratory results from patent US7964629B2, “Inhibitors of isoprenylcysteine carboxyl methyltransferase” (Duke Universtiy, priority 2005, dated 2011).
# The chains behind the UniProt entries cited, without tags or fusion partners.
# UniProt O60725, whole entry: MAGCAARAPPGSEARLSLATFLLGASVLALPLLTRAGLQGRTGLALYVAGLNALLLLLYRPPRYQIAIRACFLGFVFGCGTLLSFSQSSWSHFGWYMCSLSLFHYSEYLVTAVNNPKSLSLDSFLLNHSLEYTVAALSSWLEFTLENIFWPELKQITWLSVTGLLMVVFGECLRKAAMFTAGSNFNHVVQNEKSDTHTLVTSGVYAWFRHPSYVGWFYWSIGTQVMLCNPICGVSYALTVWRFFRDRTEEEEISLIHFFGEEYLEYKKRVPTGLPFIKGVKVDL
# Target: recombinant human Icmt (Homo sapiens, UniProt O60725)
# Assay: Icmt assay: [3H]methyl incorporation from [3H]AdoMet into BFC
# Type: biochemical
compound,measurement,setting,value
Cc1cccc(-c2ccc3c(c2)c(CC(N)=O)cn3Cc2ccc3ccccc3c2)c1,IC50,"Table 1, R1 substituent x scaffold matrix",17.2 µM
same,IC50,"read-out: IC50 No PI, Table 3, without pre-incubation of the enzyme with the compound",17.2 µM
same,IC50,"read-out: IC50 PI, Table 3, pre-incubation with Icmt for 30 min at 37° C.",1.34 µM

# Like-named read-outs stand apart in the source and are kept apart here.
